Source: PMC11947346, “Synthesis and preclinical evaluation of gastrin releasing peptide receptor antagonist [^18F]MeTz-PEG2-RM26 for positron emission tomography” (EJNMMI Radiopharmacy and Chemistry, 2025)

The chains behind the UniProt entries cited, without tags or fusion partners. Where a name states a change or a piece, a line headed by the entry shows the natural chain unless it says otherwise.
UniProt P30550: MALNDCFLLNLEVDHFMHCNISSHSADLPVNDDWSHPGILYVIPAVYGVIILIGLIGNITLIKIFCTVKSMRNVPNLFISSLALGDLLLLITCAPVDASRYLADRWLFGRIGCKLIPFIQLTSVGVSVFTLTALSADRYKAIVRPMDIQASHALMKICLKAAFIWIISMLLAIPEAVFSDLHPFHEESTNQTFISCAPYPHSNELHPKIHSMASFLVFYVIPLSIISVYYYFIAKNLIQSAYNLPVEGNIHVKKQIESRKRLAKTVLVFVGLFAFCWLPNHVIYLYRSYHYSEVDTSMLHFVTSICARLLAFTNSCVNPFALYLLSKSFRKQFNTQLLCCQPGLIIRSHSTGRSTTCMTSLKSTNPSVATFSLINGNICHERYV

Target: T1, GRPR (Homo sapiens, UniProt P30550)
T1 construct: investigated using GRPR-expressing PC-3 cells; endogenous in cells; host or cells: PC-3 cells
Assay: In vitro competitive binding assay against [^125I]I-Tyr^4-BBN; IC50 determination
Conditions: alive PC-3 cells, 5 h at 4°C, 24.6 fmol [^125I]I-Tyr^4-BBN, competitor 0.01–500 nM
Description: The half maximal inhibitory concentration (IC50) was determined for F-MeTz-PEG2-RM2 (8b), Ga-loaded NOTA-PEG2-RM26 (Varasteh et al. [2013b], [2015]) conjugate was used as a comparator. An in vitro competitive binding assay was performed using [^125I]I-Tyr^4-BBN (Revvity, Sollentuna, Sweden) similar to the procedure previously described (Kanellopoulos et al. [2024]). Briefly, 10^5 cells were incubated the day before. The next day cells were incubated for 5 h at 4°C with 24.6 fmol of [^125I]I-Tyr^4-BBN in the presence of increasing concentrations of competitor (0.01–500 nM). After incubation, the cells were collected, and their activity was measured.

“Ga-NOTA-PEG2-RM26: Ga-loaded NOTA-PEG2-RM26 conjugate used as comparator in the competitive binding assay [reference compound]” gave an IC50 of 0.87 nM.
